Here are results for 1 molecule from US20170145069A1 (Novo Nordisk, published 2017).

Protein sequences, listed by entry. Tags and fused reporters are not part of them. Lines headed by an entry give the natural chain unless they say otherwise; changes in a name come on top.
UniProt P43220: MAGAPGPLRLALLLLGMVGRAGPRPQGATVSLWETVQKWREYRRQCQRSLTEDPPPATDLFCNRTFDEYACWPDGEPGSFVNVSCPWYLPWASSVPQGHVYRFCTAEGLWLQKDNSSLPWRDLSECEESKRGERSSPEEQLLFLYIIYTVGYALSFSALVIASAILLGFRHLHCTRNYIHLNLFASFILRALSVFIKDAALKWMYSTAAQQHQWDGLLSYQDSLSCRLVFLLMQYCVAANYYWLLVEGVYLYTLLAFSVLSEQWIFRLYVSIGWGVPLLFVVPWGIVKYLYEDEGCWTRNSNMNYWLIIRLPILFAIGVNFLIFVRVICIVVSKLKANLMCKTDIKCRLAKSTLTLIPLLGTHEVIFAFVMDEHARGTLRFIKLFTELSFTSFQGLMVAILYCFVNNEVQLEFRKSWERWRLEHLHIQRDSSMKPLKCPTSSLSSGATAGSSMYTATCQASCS

Experiment [1] concerns the target T1, human GLP-1 receptor (human, UniProt P43220 24-463). Briefly: cell-based or functional assay.
Experiment [2] addresses T1, human GLP-1 receptor. Nature of the experiment: SPA, displacement of 125I-GLP-1(7-36)NH2, BHK membranes, 0.001% HSA. As to the method:
Test compounds, membranes, SPA-particles and [¹²⁵I] ]-GLP-1(7-36)NH₂ were diluted in assay buffer. 50 ul (micro liter) buffer (“low albumin” experiment containing 0.001% HSA) was added to Optiplate, and 25 ul of test compounds were added. 5-10 μg membrane protein/sample was added (50 μl) corresponding to 0.1-0.2 mg protein/ml (to be preferably optimised for each membrane preparation). SPA-particles (Wheatgerm agglutinin SPA beads, Perkin Elmer, #RPNQ0001) were added in an amount of 0.5 mg/well (50 μl). The incubation was started with [¹²⁵I]-GLP-1]-(7-36)NH₂ (final concentration 0.06 nM corresponding to 49.880 DPM, 25 μl). The plates were sealed with PlateSealer and incubated for 120 minutes at 30° C. while shaking. The plates were centrifuged (1500 rpm, 10 min) and counted in Topcounter.
The IC₅₀ value was read from the curve as the concentration which displaces 50% of ¹²⁵I-GLP-1 from the receptor.

B1: GLP-1 derivative of Example 3 (Chem. 22), N^eps26,N^eps37-diacylated [His^31,Gln^34,Lys^37]-GLP-1-(7-37)-peptide (peptide)
peptide: HAEGTFTSDVSSYLEGQAAKEFIAHLVQGRK
modifications: eps-amino of Lys26 and Lys37 each acylated with 10-(4-carboxyphenoxy)decanoyl-gGlu-Ser-Ser-Gly-Ser-Ser-Gly
B1: the “In vitro potency (AlphaScreen cAMP; membranes) EC50” value with human GLP-1 receptor [1] amounted to 0.137 nM. Moreover, the IC50 with human GLP-1 receptor [2] came out at 11.6 nM.
